Source: publication PMC3431306 (2012)

Target: CPSF6_(313–327) peptide (cleavage and polyadenylation specific factor 6, residues 313–327) (UniProt Q16630-2 313-327, N-terminal His tag omitted; strain not given, SIVmac Gag isolate Mm142-83 taken; CA residues 1-144 by alignment to HIV-1 CA 1-146 (CA N56 and N73 = precursor N191 and N208))
Test: ITC

B1: SIVmac CA N-terminal domain (CA^N) (domain or fragment)
chain: not shown
B1 gave a Kd of 219 µM.
